Measured values as given in paper PMC12799587, “Predicting compounds that interact with the 2 known agonist-induced conformations of the human β1-adrenoceptor” (Molecular Pharmacology, 2025).

Sequences of proteins named here, by UniProt entry; tags and fusion partners are left off.
UniProt P08588, whole entry: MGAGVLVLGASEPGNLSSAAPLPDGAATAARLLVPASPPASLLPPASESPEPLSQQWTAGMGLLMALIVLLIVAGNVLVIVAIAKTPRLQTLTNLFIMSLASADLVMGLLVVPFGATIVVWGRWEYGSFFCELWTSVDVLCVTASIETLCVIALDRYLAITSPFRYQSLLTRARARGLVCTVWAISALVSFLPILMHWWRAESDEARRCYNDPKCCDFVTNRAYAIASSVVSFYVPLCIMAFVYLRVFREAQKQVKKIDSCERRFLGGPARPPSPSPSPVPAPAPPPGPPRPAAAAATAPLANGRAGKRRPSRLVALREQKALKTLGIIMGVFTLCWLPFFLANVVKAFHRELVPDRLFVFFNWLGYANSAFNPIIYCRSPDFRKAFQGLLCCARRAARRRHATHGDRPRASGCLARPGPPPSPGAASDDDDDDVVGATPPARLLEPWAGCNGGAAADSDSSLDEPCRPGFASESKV

Legend:
β1-AR [1] = target: T1, β1-AR (Homo sapiens, UniProt P08588); assay: 3H-CGP12177 whole-cell binding in CHO-β1-CRE-SPAP cells
β1-AR [2] = target: T1, β1-AR; assay: CRE-luciferase production in CHO-β1-CRE-luciferase cells; conditions: Log EC50, agonist action, given as log EC50 (negative)
β1-AR [3] = target: T1, β1-AR; assay: CRE-SPAP production in CHO-β1-CRE-SPAP cells; conditions: EC502 (log EC50 of second component), biphasic concentration response

Kd (β1-AR [1]): 0.00631 µM | EC50 (β1-AR [2]): 0.324 µM | EC50 (β1-AR [3]): 0.363 µM
Structure (SMILES): C=CCc1ccccc1OCC(O)CNC(C)C (racemic) [Alprenolol, (RS)-1-(2-allylphenoxy)-3-(isopropylamino)propan-2-ol, reference compound]
